The experiment deals with Mu-type opioid receptor (Homo sapiens, UniProt P35372). Description: Human Mu-Opioid Peptide (hMOP) Receptor Binding Assay: The hMOP receptor binding assay was performed as homogeneous SPA-assay (scintillation proximity assay) using the assay buffer 50 mM TRIS-HCl (pH 7.4) supplemented with 0.052 mg/ml bovine serum albumin (Sigma-Aldrich Co., St. Louis, Mo.). The final assay volume (250 μl/well) included 1 nM of [N-allyl-2,3-3H]naloxone as ligand (PerkinElmer Life.
Broadly, the Ki is the dissociation constant of the complex between target and ligand, obtained from inhibition or displacement. Turning to `CN(C)[C@]1(c2ccccc2)CC[C@]2(CC1)CN(CC(=O)N1C[C@@H](O)[C@@H](O)C1)C(=O)N2CC1CCC1`, the Ki stood at 40.5 nM.
In the case of `CN(C)[C@]1(c2ccccc2)CC[C@]2(CC1)CN(CC(=O)Nc1ccncn1)C(=O)N2CC1CCC1`, the Ki turned out to be 36.5 nM.
As to `COc1ccc(NC(=O)CN2C[C@]3(CC[C@](c4ccccc4)(N(C)C)CC3)N(CC3CCC3)C2=O)nc1`, the Ki worked out at 36.5 nM.
As for `CN(C)[C@]1(c2ccccc2)CC[C@]2(CC1)CN(CC(=O)NCCO)C(=O)N2CC1CCC1`, the figure is 47 nM.
The compound `CN(C)[C@]1(c2ccccc2)CC[C@]2(CC1)CN(CC(=O)Nc1ccc(S(C)(=O)=O)cn1)C(=O)N2CC1CCC1` registered a Ki of 40 nM.
As for `CNC(=O)CN1C[C@]2(CC[C@](c3ccccc3)(N(C)C)CC2)N(CC2CCC2)C1=O`, the figure is 24.8 nM.
